Source: patent publication US11555072B2, “A33 antibody compositions and methods of using the same in radioimmunotherapy” (MEMORIAL SLOAN KETTERING CANCER CENTER, priority 2017, dated 2023)

Columns and labels:
T cells = assay: T cell activation and proliferation assay (CFSE-labeled PBMCs plus tumor cells); format: cell-based, human
Protocol: T cell proliferation assay. Fresh PBMCs from healthy donors were labeled with […] CFSE (Life Technologies Corp., Carlsbad, Calif.) for 5 min at room temperature, followed by neutralization using PBS containing 5% FBS. Target cells were then incubated with labeled PBMCs under different conditions at 37° C. before analyzing the expression of surface activation markers and T cell proliferation at 24 hours and 96 hours.
HuA33-BsAb activated and induced cell cycle entry of fresh T cells.

[1] = tested on: A33-positive SW1222 xenografts; assay: PRIT therapy studies in SW1222 xenograft mice (planned); format: in vivo
Protocol: PRIT reagents, protocol and xenograft studies. All animal experiments will be approved by the Institutional Animal Care and Use Committee of Memorial Sloan Kettering Cancer Center and institutional guidelines for the proper and humane use of animals in research will be followed. Athymic nu/nu female mice (6-8 weeks old; Harlan Sprague Dawley) are allowed to acclimate in the vivarium for at least one week. Groups of animals are injected s.c. with A33-positive SW1222 in the left flank with 5×10^6 tumor cells formulated with […]® (BD Biosciences, San Jose, Calif.) in a 1:1 ratio, and established tumors (100-900 mm^2) will be observed in 7-10 days using the formula for the volume of an ellipsoid (V=4/3π(length/2×width/2×height/2). All reagents will be given intravenously (i.v.) via the lateral tail vein. PRIT protocol includes injections of: huA33-huC825 or huA33-mC825 [t=−28 h], followed by clearing agent (a 500 KDa dextran-(Y)-DOTA-Bn conjugate, prepared according to Orcutt et al., Nucl. Med Biol. 38:223-233 (2011) and formulated in saline for injection 24 h later. The substitution ratio of moles of (Y)-DOTA-Bn per moles of dextran will be 61(Y)-DOTA-Bn/dextran)) [t=−4 h], and ^177Lu-DOTA-Bn (prepared as previously described by incubating aminobenzyl-DOTA(p-NH2-Bn-DOTA) from MACROCYCLICS™ and ^177LuCl3 (specific activity −30 Ci/mg; […]®, Inc.) and formulated in saline for injection) after 4 h [t=0 h]. In addition, huA33-C825 is trace radiolabeled with I^131 to estimate tumor uptake during PRIT.
Therapy and scintigraphy studies. Groups of mice bearing established s.c. A33-positive SW1222 xenografts are injected with either huA33-C825 (huA33-huC825 or huA33-mC825) or non-specific (n.s.) IgG-C825 PRIT (i.e., single-cycle treatment, ^177Lu-DOTA-Bn injection on day 7 post tumor-inoculation) or two cycles of PRIT (i.e., dual-cycle treatment study, ^177Lu-DOTA-Bn injections given on day 10 and day 17 post tumor-inoculation). For the dual-cycle treatment study, the tumor volume on day 10-post tumor inoculation (TV 10) is described (i.e., day of first ^177Lu-DOTA-Bn injection) and expressed when appropriate as average±SD. The following definitions are used to describe treatment response: a complete response (CR) is defined as tumor shrinkage to <100 mm^3. A durable response (DR) is defined as survival at 140 days post treatment. Excessive tumor burden is defined as >2000 mm^3. […]
Biodistribution of radiolabeled DOTA-Bn and estimates of absorbed doses in mice implanted with SW1222 tumor cells are determined. […] Briefly, ^177Lu-activity in tumor and various normal tissues are determined using a biodistribution assay following PRIT with optimum A33-C825 (huA33-huC825 or huA33-mC825) and dextran-clearing agent doses and 2.0 MBq (−10 pmol) of ^177Lu-DOTA-Bn. […]

[2] = PRIT toxicity assessment in treated mice (planned); format: in vivo
Protocol: Biodistribution of radiolabeled DOTA-Bn and estimates of absorbed doses in mice implanted with SW1222 tumor cells are determined. PRIT is carried out in groups of A33-positive SW1222 tumor-bearing mice with the optimum doses of huA33-C825 and Clearing Agent, followed with 2.0 MBq (−10 pmol) of ^177Lu-DOTA-Bn and biodistribution studies are carried out from 2-120 h p.i. of ^177Lu-DOTA-Bn to determine the ^177Lu-activity residence time in tumor and various normal tissues. Briefly, ^177Lu-activity in tumor and various normal tissues are determined using a biodistribution assay following PRIT with optimum A33-C825 (huA33-huC825 or huA33-mC825) and dextran-clearing agent doses and 2.0 MBq (−10 pmol) of ^177Lu-DOTA-Bn. Groups of SW1222 tumor-bearing mice (n=4 to 5) are given huA33-C825, followed 24 h later with dextran-clearing agent, and after an additional 4 h, 2.0 MBq (−10 pmol) of ^177Lu-DOTA-Bn. […] For each target region, the absorbed dose is calculated as the product of the ^177Lu equilibrium dose constant for non-penetrating radiations (i.e., beta rays) and the target regions ^177Lu cumulated activity, assuming complete local absorption of the ^177Lu beta rays and ignoring the gamma ray and non-self dose contributions. […] Similar results in tumor uptake after PRIT are expected when assessed using PET imaging. […]

[3] = three cycles, 55 MBq 177Lu-DOTA-Bn each

B1: huA33-C825: huA33 bispecific with anti-DOTA C825 scFv (huA33-huC825 or huA33-mC825); also negative control lacking anti-CD3 scFv (antibody)
heavy: EVQLLESGGGLVQPGGSLRLSCAASGFAFSTYDMSWVRQAPGKGLEWVATISSGGSYTYYLDSVKGRFTISRDSSKNTLYLQMNSLQAEDSAIYYCAPTTVVPFAYWGQGTLVTVSSASTKGPSVFPLAPSSKSTSGGTAALGCLVKDYFPEPVTVSWNSGALTSGVHTFPAVLQSSGLYSLSSVVTVPSSSLGTQTYICNVNHKPSNTKVDKRV[gap - human IgG1 Fc with changes]
light: DIQMTQSPSSLSVSVGDRVTITCKASQNVRTVVAWYQQKPGLAPKTLIYLASNRHTGVPSRFSGSGSGTDFTFTISSLQPEDIATYFCQQHWSYPLTFGQGTKVEVKRTVAAPSVFIFPPSDEQLKSGTASVVCLLNNFYPREAKVQWKVDNALQSGNSQESVTEQDSKDSTYSLSSTLTLSKADYEKHKVYACEVTHQGLSSPVTKSFNRGECGGGGSGGGGSASHVKLQESGPGLVQPSQSLSLTCTVSGFSLTDYGVHWVRQSPGKGLEWLGVIWSGGGTAYNTALISRLNIYRDNSKNQVFLEMNSLQAEDTAMYYCARRGSYPYNYFDAWGCGTTVTVSSGGGGSGGGGSGGGGSQAVVIQESALTTPPGETVTLTCGSSTGAVTASNYANWVQEKPDHCFTGLIGGHNNRPPGVPARFSGSLIGDKAALTIAGTQTEDEAIYFCALWYSDHWVIGGGTRLTVLG
T cell division by CFSE dye dilution (T cells; PBMCs + Colo205, 96 hours): did not stimulate significant amount of cell division
upregulation of CD25 (T cells; PBMCs + Colo205, E:T 5, 24 hours): only minimal upregulation of CD25
tumor response, single-cycle therapy study ([1]; 11.1 or 33.3 MBq 177Lu-DOTA-Bn): delay in tumor growth
tumor to blood therapeutic index ([1]; single-cycle PRIT with 177Lu-DOTA-Bn): high tumor to blood therapeutic index
tumor response, three-cycle PRIT regimen [1, 3]: complete tumor response in all treated animals
tumor response, dual-cycle PRIT ([1]; two cycles of PRIT+11.1 MBq 177Lu-DOTA-Bn): complete tumor response and/or delay tumor growth
toxicity over prolonged periods ([2]; subjects with durable responses after PRIT): little to no toxicity
toxicities after three-cycle PRIT regimen [2, 3]: no obvious toxicities in kidney, liver, spleen, and bone/marrow
